Assay: Conductivity of diluted samples (EPA method 120.1)
Type: physicochemical
Conditions: samples diluted with de-ionized water; Example materials at 1% by volume in water
Method: To further evaluate the materials prepared in Examples I and II, samples of the materials are diluted with deionized water to provide material that contains 1% by volume of the respective material in water.
In order to test for conductivity the samples are each diluted with de-ionized water for analysis. The testing is completed using a Mettler Toledo Seven Excellence Meter with a conductivity probe following EPA method 120.1.

## O=S(=O)(O)O [Dilute sulfuric acid, sulfuric acid, reference compound]
  Conductivity: 556 mS/cm
